Assay results reported in US20240288374A1 (priority 2023, published 2024).

Sequences of proteins named here, by UniProt entry; tags and fusion partners are left off. Residues count along the entry.
UniProt P22629, 25-183, species assumed: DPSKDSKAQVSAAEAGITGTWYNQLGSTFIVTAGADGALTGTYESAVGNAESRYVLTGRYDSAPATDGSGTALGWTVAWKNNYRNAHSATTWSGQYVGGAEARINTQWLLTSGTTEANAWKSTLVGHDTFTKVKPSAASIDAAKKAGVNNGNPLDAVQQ

Biological target: Streptavidin (SAV) (Streptomyces avidinii, UniProt P22629)

`O=C(O)CCCC[C@@H]1SC[C@@H]2NC(=O)N[C@@H]21` [biotin] was tested, and the “colorimetric response of detection solution to biotin” value was “red to blue color changes”.
